Test results as given in ChEMBL document CHEMBL4837200, “Discovery of Orally Bioavailable Purine-Based Inhibitors of the Low-Molecular-Weight Protein Tyrosine Phosphatase” (J Med Chem, 2021).

Biological target: T1, Low molecular weight phosphotyrosine protein phosphatase (Homo sapiens) (UniProt P24666)
T1 sequence (whole entry): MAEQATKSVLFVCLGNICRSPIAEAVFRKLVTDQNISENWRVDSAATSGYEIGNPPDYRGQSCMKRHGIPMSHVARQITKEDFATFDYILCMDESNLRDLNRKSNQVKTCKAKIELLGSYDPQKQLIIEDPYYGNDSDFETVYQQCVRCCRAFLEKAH

Cc1ccccc1-c1nc2c(N)ncn(Cc3c(Cl)cccc3Cl)c-2n1
alphaKi: 0.147
